This note sets out measurements from PubChem BioAssay AID1508602 (The Scripps Research Institute Molecular Screening Center, 2020).

Sequences of proteins named here, by UniProt entry; tags and fusion partners are left off. A change or cut given only in a name is not applied to a line headed by its entry.
UniProt Q8TDV0: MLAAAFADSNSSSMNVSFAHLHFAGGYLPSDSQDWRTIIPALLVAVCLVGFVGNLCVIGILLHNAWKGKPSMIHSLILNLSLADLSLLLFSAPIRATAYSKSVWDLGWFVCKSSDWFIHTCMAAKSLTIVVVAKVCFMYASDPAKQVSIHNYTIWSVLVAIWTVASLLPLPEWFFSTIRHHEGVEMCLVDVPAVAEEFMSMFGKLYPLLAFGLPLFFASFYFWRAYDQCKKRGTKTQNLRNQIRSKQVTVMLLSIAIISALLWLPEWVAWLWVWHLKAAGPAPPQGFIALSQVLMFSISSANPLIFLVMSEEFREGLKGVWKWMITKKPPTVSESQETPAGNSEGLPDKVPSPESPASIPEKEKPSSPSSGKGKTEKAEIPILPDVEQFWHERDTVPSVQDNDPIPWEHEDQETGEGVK

SMILES strings stand for the structures. Only a part is listed here, and it is no random draw. Active and inactive are the calls of the source. Cut-off read from the data, not from the text of the source: active = activation above about 4.9%; inactive = the rest.

For the assay, the target named is G-protein coupled receptor 151 (Homo sapiens) (UniProt Q8TDV0). Description: activators of human GPR151, primary screen, cell-based, PathHunter beta-arrestin, luminescence (AID 1508602).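 Note: 0% = median of compound wells and 100% = cells with positive control.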 The conditions noted are these: PathHunter beta-arrestin GPR151 cells, at 11.2 µM, hits give high values.
As for `Cc1ccc2nc(NCCCl)[nH]c2c1`, the activation is inactive: -2.27%.

Turning to `CCOP(=O)(OCC)C(NC(=O)OC)C(Cl)(Cl)Cl` (stereo not drawn), the activation was inactive: 0.903%.

In the case of `CCOC(=O)c1ccc(NC2=NCC(CBr)S2)cc1` (stereo not drawn), the activation is inactive: -0.681%.

Take `O=C(NNC1=NCC(CBr)S1)c1ccccc1` (stereo not drawn): the activation is inactive: -0.411%.

Turning to `CCOP1(=O)O/C(=C\Cl)CN1c1ccccc1` (stereo not drawn), the activation is inactive: -2.03%.

`O=[N+]([O-])c1ccc(NCCCCNc2ccc([N+](=O)[O-])cc2[N+](=O)[O-])c([N+](=O)[O-])c1`: the activation was inactive: 1.36%.

As to `O=P1(Nc2nc3ccc(Cl)cc3s2)COc2ccccc2O1` (stereo not drawn), the activation was inactive: 0.506%.

With `Cc1ccc([N+](=O)[O-])c2no[n+]([O-])c12`, the activation is inactive: -1.55%.

For the compound `COC(=O)C(CC(C)C)NC(=O)NP(=O)(Oc1ccccc1)Oc1ccccc1` (stereo not drawn), the activation is inactive: -1.49%.

In the case of `Cc1cc(NC2=NC3C(C(=O)N(C)C(=O)N3C)N2C)n(-c2ccccc2)n1` (stereo not drawn), the activation is inactive: -2.85%.

For the compound `O=[N+]([O-])c1cc([N+](=O)[O-])c(N(CC(O)CO)c2ccccc2)c([N+](=O)[O-])c1` (stereo not drawn), the activation is inactive: -1.1%.

With `O=C(c1cccnc1)N(Cc1ccco1)C1CCN(CCc2ccccn2)CC1`, the activation was inactive: 1.81%.

As to `CCOP(=O)(OCC)C(OC(=O)C(Cl)(Cl)Cl)=C(Cl)Cl`, the activation was inactive: 1.68%.

`CNc1c([N+](=O)[O-])cc([N+](=O)[O-])c2nonc12`: the activation is inactive: -1.49%.

Consider `O=P1(Nc2nncs2)C=C(c2ccccc2)SC(c2ccccc2)=C1`, for which the activation was inactive: -0.832%.

Take `CN(C)c1ccc(/[N+]([O-])=C/c2c([N+](=O)[O-])cc([N+](=O)[O-])cc2[N+](=O)[O-])cc1`: the activation was inactive: -1.68%.

As for `CCOP(=S)(NN(CCCl)c1ccccc1)OCC`, the activation is inactive: 1.33%.

Turning to `CN(C(=O)Cc1ccc(Cl)c(Cl)c1)[C@@H]1CCCC[C@@H]1N1CCCC1`, the activation was inactive: 2.5%.

In the case of `O=C(c1ccco1)N(Cc1cccnc1)C1CCN(CCc2ccccn2)CC1`, the activation was inactive: -0.354%.

Take `CC(=O)O[C@H]1CN2CCC1[C@@H](c1ccccc1)C2` (stereo partly drawn): the activation is inactive: 0.248%.

Turning to `CC(=O)N(Cc1ccco1)C1CCN(CCc2ccccn2)CC1`, the activation is inactive: -1.33%.

On to `O=c1c2cc([N+](=O)[O-])ccc2[nH]c2c([N+](=O)[O-])cc([N+](=O)[O-])cc12`, for which the activation was inactive: -1.08%.

As to `COc1ccc([N+](=O)[O-])cc1NC(=O)c1ccc([N+](=O)[O-])cc1[N+](=O)[O-]`, the activation was inactive: -0.315%.

On to `Cc1c([N+](=O)[O-])cc(C(=O)c2cc([N+](=O)[O-])c(C)c([N+](=O)[O-])c2)cc1[N+](=O)[O-]`, for which the activation is inactive: -1.46%.

Turning to `CN(C)c1ccc2c(c1)N1Cc3ccccc3C1=NP2(=O)c1ccccc1` (stereo not drawn), the activation was inactive: 0.328%.

As for `CC(C)OP(=O)(OC(C)C)C(C)N` (stereo not drawn), the activation was inactive: -1.07%.

In the case of `CCOP(=O)(OCC)C(=O)c1ccccc1I`, the activation is inactive: 1.35%.

Regarding `O=C(Nc1cccc(F)c1)N(Cc1cccnc1)C1CCN(CCc2cccs2)CC1`, the activation is active: 5.2%.

In the case of `O=[N+]([O-])c1ccc(N/N=C/c2ccc([N+](=O)[O-])o2)c([N+](=O)[O-])c1`, the activation was inactive: -0.614%.

Regarding `O=P1(c2ccccc2)N=C(c2ccccc2)NC(C(Cl)(Cl)Cl)=N1` (stereo not drawn), the activation is inactive: 0.8%.

`COC(=O)N(c1ccccc1)P1(=S)OCC(C)O1` (stereo not drawn): the activation was inactive: -0.264%.

Turning to `O=C(c1cccc([N+](=O)[O-])c1)c1ccc([N+](=O)[O-])c([N+](=O)[O-])c1`, the activation was inactive: 1.6%.

On to `O=C(NNc1ccc([N+](=O)[O-])cc1[N+](=O)[O-])c1cccc([N+](=O)[O-])c1`, for which the activation was inactive: -0.85%.

As for `ClC1CSc2nc3ccccc3n2C1` (stereo not drawn), the activation was inactive: -0.511%.

`O=C(COC(=O)C(O)(c1ccccc1)c1ccccc1)NC12CC3CC(CC(C3)C1)C2`: the activation was inactive: -2.07%.

`COC(=O)N(c1ccccc1)P1OCC(C)O1` (stereo not drawn): the activation was inactive: -1.04%.

For the compound `CCOC(=O)C(C)NC(=O)CSP(=O)(OCC)OCC` (stereo not drawn), the activation was inactive: -0.812%.

As for `O=C(OC1CN2CCC1CC2)c1cccc(Cl)c1` (stereo not drawn), the activation is inactive: -2.02%.

With `CCOc1ccc(S(=O)(=O)N(CCCl)CCCl)cc1`, the activation is inactive: 0.0133%.

For the compound `CC(C)OP(=O)(OC(C)C)N1CCCCC1`, the activation is inactive: -0.591%.

In the case of `Nc1nonc1OCc1nonc1COc1nonc1N`, the activation was inactive: 0.951%.

In the case of `BrCC1Cn2c(nnc2-c2cccnc2)S1` (stereo not drawn), the activation is inactive: 0.13%.

Turning to `COc1ccc(/C=C2/C(=O)NC(=O)N(Cc3ccco3)C2=O)c(OC)c1`, the activation is inactive: 0.88%.

As to `O=C(Nc1c(Cl)cc([N+](=O)[O-])cc1[N+](=O)[O-])c1ccc([N+](=O)[O-])cc1`, the activation is inactive: 1.73%.

Turning to `O=C(Nc1cccc(F)c1)N(Cc1ccco1)C1CCN(CCc2ccccn2)CC1`, the activation is inactive: -0.1%.

Consider `O=P(/C=C(\Cl)c1ccccc1)(/C=C(\Cl)c1ccccc1)Nc1nncs1`, for which the activation was inactive: 3.06%.

`CC(C)NC(=O)N(Cc1ccco1)C1CCN(CCc2cccs2)CC1`: the activation is inactive: -0.0554%.

On to `CC1Cc2ccccc2N1C(=O)COC(=O)C(O)(c1ccccc1)c1ccccc1` (stereo not drawn), for which the activation is inactive: -0.276%.

Consider `CNC(=O)c1nsnc1NCCCl`, for which the activation was inactive: -0.71%.

Regarding `O=C(N/N=C/c1ccc([N+](=O)[O-])o1)c1cc([N+](=O)[O-])cc([N+](=O)[O-])c1`, the activation was inactive: -0.82%.

For the compound `CCOP(=O)(Nc1cccc(F)c1)OCC`, the activation is inactive: 2.03%.

Take `CC(C)NC(=O)N(Cc1cccnc1)C1CCN(CCc2cccs2)CC1`: the activation is inactive: -1.47%.

For `COc1ccc(S(=O)(=O)N(CCCl)CCCl)cc1`, the activation is inactive: 0.255%.

Turning to `O=[N+]([O-])c1ccc(N/N=C/C=C/c2ccc([N+](=O)[O-])o2)c([N+](=O)[O-])c1`, the activation is inactive: 0.306%.

Take `COc1ccc(CCN2CCC(N(Cc3ccco3)C(=O)c3cccc(C#N)c3)CC2)cc1`: the activation was inactive: 3.03%.

Turning to `Cc1ccc(NP(=O)(OCC(C)C)OCC(C)C)nc1`, the activation is inactive: -0.55%.

`C/C(=N\Nc1ccc([N+](=O)[O-])cc1[N+](=O)[O-])c1ccc([N+](=O)[O-])cc1`: the activation is inactive: -1.85%.

Turning to `O=C(COc1ccccc1[N+](=O)[O-])N/N=C/c1cc([N+](=O)[O-])cc([N+](=O)[O-])c1O`, the activation is inactive: 0.379%.
